According to patent US20110183991A1, “5HT7 RECEPTOR LIGANDS AND COMPOSITIONS COMPRISING THE SAME” (LABORATORIOS DEL DR. ESTEVE, S.A., priority 2008, published 2011):
Some compounds may have been tested in ways that are not shown here.

The chains behind the UniProt entries cited, without tags or fusion partners.
UniProt P34969, whole entry: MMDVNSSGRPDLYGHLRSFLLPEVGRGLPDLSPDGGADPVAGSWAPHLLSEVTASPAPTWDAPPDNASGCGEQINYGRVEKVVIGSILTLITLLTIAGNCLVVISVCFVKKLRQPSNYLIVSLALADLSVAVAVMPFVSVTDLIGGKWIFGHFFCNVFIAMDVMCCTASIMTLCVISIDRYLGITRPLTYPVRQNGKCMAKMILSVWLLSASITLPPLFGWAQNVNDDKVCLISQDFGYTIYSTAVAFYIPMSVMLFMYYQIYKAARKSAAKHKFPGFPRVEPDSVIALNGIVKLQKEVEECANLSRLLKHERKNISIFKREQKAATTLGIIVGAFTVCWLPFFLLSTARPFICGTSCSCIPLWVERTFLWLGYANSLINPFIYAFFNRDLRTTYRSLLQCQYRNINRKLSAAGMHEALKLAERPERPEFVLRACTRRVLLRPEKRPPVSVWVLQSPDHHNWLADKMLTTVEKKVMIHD

Target: Cloned Human Serotonin Receptor, Subtype 7 (h5HT7), expressed in CHO cells (Homo sapiens, UniProt P34969)
Test: Radioligand binding assay, [125I]LSD, cloned human 5HT7 receptor on Flashplate
Conditions: 5HT7 binding experiments on the screening selection

`O=c1[nH]c2ccccc2n1C1CCN(Cc2ccc(F)c(F)c2)CC1` was tested. Which “affinity for the 5HT7 receptor (in words)” value did it give?
Its value is “good affinity”.
